Measured values published in article PMC3992716 (European journal of pharmacology, 2013).

Amino acid sequences for entries named in this document (tags omitted). Residues count along the entry.
UniProt P30532, 23-468: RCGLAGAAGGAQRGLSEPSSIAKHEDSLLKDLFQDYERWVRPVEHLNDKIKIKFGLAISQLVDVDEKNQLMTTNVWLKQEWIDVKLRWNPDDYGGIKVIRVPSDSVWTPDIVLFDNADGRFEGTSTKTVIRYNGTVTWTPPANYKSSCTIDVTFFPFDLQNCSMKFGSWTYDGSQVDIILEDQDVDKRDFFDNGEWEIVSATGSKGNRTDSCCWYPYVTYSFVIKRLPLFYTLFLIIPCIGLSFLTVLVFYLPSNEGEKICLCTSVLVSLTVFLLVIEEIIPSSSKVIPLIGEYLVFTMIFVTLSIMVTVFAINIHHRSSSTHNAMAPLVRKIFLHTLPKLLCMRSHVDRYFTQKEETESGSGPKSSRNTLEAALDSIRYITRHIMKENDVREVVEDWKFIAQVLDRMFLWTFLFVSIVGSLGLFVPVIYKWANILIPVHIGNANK
UniProt P30926, 22-498: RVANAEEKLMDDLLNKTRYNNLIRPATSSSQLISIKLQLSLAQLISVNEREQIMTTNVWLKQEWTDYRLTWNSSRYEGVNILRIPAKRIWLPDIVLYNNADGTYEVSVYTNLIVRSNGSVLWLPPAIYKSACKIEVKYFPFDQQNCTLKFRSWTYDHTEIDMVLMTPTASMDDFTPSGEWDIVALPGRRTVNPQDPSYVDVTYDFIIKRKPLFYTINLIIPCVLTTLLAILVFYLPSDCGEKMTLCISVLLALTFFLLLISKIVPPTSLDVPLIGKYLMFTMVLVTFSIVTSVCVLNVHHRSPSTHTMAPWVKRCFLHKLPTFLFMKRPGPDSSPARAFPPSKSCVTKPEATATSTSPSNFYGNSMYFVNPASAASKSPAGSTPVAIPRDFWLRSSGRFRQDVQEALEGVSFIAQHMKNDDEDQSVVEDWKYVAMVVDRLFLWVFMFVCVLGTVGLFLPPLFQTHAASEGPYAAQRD
UniProt P32297, 32-505: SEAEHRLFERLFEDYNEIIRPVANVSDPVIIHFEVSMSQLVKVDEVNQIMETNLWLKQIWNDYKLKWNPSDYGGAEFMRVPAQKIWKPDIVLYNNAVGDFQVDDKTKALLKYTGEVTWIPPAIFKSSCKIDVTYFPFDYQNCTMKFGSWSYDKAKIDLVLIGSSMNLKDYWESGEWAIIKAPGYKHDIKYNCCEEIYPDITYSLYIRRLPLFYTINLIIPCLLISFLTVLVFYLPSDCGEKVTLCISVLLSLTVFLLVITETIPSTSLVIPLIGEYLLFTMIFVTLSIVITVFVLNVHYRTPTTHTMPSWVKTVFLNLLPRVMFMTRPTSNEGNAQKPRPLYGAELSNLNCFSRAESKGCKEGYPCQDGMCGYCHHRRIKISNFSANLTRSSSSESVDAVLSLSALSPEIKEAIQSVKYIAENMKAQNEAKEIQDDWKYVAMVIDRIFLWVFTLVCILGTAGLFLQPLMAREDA

Molecular target: α3(2)β4(2)α5 (Homo sapiens, UniProt P30532+P30926+P32297)
Format: cell-based

Structure (SMILES)	IC50
CNC1(C)C2CCC(C2)C1(C)C (stereo not drawn) [R(-)Mecamylamine, N-2,3,3-tetramethylbicyclo[2.2.1]heptan-2-amine]	0.6 ± 0.07 µM
CN[C@@]1(C)[C@@H]2CC[C@@H](C2)C1(C)C [S(+)Mecamylamine, N-2,3,3-tetramethylbicyclo[2.2.1]heptan-2-amine]	0.89 ± 0.18 µM
